System: electroshock provoked by electric current
Assay: Anticonvulsive activity on mice (inhibition of electroshock)
Assay type: in vivo
Details: p.o.
Protocol: The tests were carried out according to the method of Swinyard et al. [I. Pharmacol. Exp. Ther., 106, 319-330 (1952)] which method is based on the inhibition of electroshock provoked by electric current on mice. The compounds to be tested were administered perorally. One hour later electroshocks were given by using corneal electrodes. The frequency of the electroshocks was 50 Hz, the current intensity 45 mA and the duration 0.4 sec. The full inhibition of the tonic-extensoric spasm on the hind limbs was considered as the criterium of the anticonvulsive activity. As reference compound phenobarbital, trimetadone and traboxopin were used.

CN1C(=O)OC(C)(C)C1=O [trimetadione, 3,5,5-trimethyl-oxazolidine-2,4-dione]
Therapeutical index LD50/ED50: 4.3

Source: patent US4965259A, “Dioxazocine derivatives compositions and methods containing them having antidepressive, spasmolytic, anticonvulsive, and antiarrhythmic properties” (EGIS Gyogyszergyar, priority 1987, dated 1990)
